Data on two molecules can be found in patent US9107926B2, “Mutant selectivity and combinations of a phosphoinositide 3-kinase inhibitor compound and chemotherapeutic agents for the treatment of cancer” (Genentech, Inc., priority 2012, dated 2015).

Chains of the proteins cited; added tags and fusions are not shown.
UniProt P42336, whole entry: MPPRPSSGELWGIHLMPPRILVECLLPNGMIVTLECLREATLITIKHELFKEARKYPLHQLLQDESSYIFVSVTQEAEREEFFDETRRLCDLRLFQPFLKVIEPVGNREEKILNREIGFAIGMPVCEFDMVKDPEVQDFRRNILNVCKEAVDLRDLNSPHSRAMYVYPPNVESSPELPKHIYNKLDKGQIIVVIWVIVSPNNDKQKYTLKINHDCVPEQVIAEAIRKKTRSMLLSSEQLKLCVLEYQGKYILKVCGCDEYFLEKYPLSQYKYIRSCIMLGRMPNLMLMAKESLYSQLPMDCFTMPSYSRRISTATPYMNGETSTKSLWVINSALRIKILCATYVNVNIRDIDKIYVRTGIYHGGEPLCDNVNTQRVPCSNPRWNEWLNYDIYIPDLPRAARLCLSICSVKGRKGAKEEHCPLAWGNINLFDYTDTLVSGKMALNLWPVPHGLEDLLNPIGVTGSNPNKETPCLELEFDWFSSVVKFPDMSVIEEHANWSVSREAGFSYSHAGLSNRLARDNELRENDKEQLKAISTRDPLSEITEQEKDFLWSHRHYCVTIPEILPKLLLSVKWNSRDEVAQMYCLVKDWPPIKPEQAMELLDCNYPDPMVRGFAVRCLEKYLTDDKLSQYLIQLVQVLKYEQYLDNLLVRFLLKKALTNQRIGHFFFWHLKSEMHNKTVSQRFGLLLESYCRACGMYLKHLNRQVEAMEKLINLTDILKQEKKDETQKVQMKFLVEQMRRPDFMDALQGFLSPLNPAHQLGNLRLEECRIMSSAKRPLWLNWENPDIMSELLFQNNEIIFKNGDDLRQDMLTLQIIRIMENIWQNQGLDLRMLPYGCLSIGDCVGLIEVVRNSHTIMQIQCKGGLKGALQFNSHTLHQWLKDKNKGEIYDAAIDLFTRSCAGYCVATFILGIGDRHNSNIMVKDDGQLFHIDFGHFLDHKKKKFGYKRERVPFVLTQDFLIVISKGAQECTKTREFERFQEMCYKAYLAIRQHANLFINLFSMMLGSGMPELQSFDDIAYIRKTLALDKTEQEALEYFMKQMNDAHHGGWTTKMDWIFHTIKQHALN

One experiment deals with KPL4. The experiment can be described thus: CellTiter-Glo cell proliferation assay. The class given is cell-based. To be noted: KPL4 with H1047R and D350N PIK3CA mutations. On the technique in general: In ATP-based viability assays light output follows the ATP content of the culture.
In the next experiment the target is PI3K alpha (Homo sapiens, UniProt P42336). The experiment in a line: p110α (alpha) PI3K binding assay.

Consider “Trastuzumab: recombinant DNA-derived humanized, IgG1 kappa, monoclonal antibody binding the extracellular domain of HER2”, for which the “effect on cell viability” value with KPL4 is “did not have an effect on cell viability”.

As usually defined, the Ki is a measure of affinity in units of concentration, obtained from inhibition or displacement. Read a high Ki as lower affinity. `Cc1nc(-c2cn3c(n2)-c2ccc(-c4cnn(C(C)(C)C(N)=O)c4)cc2OCC3)n(C(C)C)n1` [GDC-0032, 2-(4-(2-(1-isopropyl-3-methyl-1H-1,2,4-triazol-5-yl)-5,6-dihydrobenzo[f]imidazo[1,2-d][1,4]oxazepin-9-yl)-1H-pyrazol-1-yl)-2-methylpropanamide]: at PI3K alpha, the inhibitory constant (Ki) came to 0.22 nM.
